Entries after “also recorded” stand apart in the source; their conditions may differ.
Target: OATP2 (Homo sapiens, UniProt Q9Y6L6, N130D)
Conditions: 293EBNA (HEK293 derivative) cells transfected with pCEP-OATP2 or empty vector (MOCK); uptake for 5 minutes; absence and presence of excess unlabeled substrate; FIG. 2
Description: An assay for the measurement of OATP activity is performed as follows: HEK293 cells are plated in Dulbeccos Modified Eagles Medium (DMEM) plus 10% fetal bovine serum plus penicillin and streptomycin, in poly-d-lysine coated dishes and co-transfected with OATP transporter expression plasmids using Lipofectamine Plus (Life Technologies, Inc.). The cells and media are assayed for substrate transport 24 hours later. Alternatively, cell lines engineered to stably express OATPs could be plated and assayed directly without transfection. To measure transport, media is removed and monolayers are assayed in triplicate by washing once in serum-free DMEM and adding the same medium containing [^3H]-substrate alone or in the presence of various concentrations of unlabeled test compounds. […] The transport activity is expressed as moles of substrate transported into cells/mg of cell protein/minute. […]
293EBNA cells (Invitrogen, Inc.), an HEK293 cell derivative, were transiently transfected with the OATP2 expression vector pCEP-OATP2, or the pCEP4 vector alone (MOCK) and the transport of [^3H]-labeled substrates was determined 24 hours later. […] The uptake of radiolabeled substrate for 5 minutes into cells transfected with pCEP-OATP2 or empty vector (MOCK) was determined in the absence (solid bars) and presence (open bars) of excess unlabeled substrate.

Sequences of proteins named here, by UniProt entry; tags and fusion partners are left off.
UniProt Q9Y6L6, whole entry N130D: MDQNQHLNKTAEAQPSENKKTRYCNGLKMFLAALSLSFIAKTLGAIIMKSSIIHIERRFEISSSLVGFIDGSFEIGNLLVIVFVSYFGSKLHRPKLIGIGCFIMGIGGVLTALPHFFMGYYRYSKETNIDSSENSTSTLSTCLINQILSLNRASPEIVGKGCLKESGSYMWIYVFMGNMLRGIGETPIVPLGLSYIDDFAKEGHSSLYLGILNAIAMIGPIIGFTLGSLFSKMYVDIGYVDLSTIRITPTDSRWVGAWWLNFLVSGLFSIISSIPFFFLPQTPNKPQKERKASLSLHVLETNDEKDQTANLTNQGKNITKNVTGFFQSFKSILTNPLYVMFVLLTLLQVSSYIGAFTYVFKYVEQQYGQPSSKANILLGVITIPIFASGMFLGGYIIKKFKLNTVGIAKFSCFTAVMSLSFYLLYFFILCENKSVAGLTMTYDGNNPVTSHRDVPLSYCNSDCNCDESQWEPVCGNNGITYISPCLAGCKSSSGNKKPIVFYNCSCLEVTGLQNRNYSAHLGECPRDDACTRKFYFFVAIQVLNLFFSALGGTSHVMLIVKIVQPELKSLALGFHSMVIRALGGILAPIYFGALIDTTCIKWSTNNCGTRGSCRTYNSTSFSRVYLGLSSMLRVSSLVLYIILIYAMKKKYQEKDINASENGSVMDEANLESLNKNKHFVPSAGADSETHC

In the case of dehydroepiandrosterone sulfate [DHEAS], the “transport (specific uptake of radiolabeled substrate) by OATP2” value is reported as “specific uptake; also recorded: transports”.

Reference: patent publication US7235375B2, “Organic anion transport proteins” (Bristol-Myers Squibb Company, priority 1999, dated 2007)
